Our source for the Kd values is PMC12860355.

In this assay the target is monomeric actin (ATP–G-actin), chicken skeletal muscle (chicken) (UniProt P68139). The assay can be described thus: SPR; actin on chip; RanGTP 0–1250 nM, 180 s association, 300 s dissociation; two-state kinetic fit.

As a reminder, the Kd is the equilibrium constant for the complex coming apart. A low value points to a tighter complex. Substance “RanGTP (RanQ69L loaded with GTP) (from UniProt P62826 1-216) (natural protein)” yielded a Kd of 300 nM.
